Several values for one entry are separate records, joined by “and”; a condition that tells them apart may be missing. Equal entries are not always repeated. Only a part is listed here, and it is no random draw.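 Each cell line was grown in a 96-well plate and treated with one concentration of compound for 48 hours. Values below 10 were considered active.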 Activity calls are given as the source filed them.
Tests used:
Experiment in all cases: NCI-60 one-dose screen, 48 h (100 = growth as untreated, 0 = no growth, -100 = all killed)
Details in all cases: 10 µM
DU-145 prostate = system: DU-145 prostate
K-562 leukemia = system: K-562 leukemia
MALME-3M melanoma = system: MALME-3M melanoma
MDA-MB-231 breast = system: MDA-MB-231 breast
RXF 393 renal = system: RXF 393 renal
SF-268 CNS = system: SF-268 CNS
SF-295 CNS = system: SF-295 CNS
SF-539 CNS = system: SF-539 CNS
UACC-257 melanoma = system: UACC-257 melanoma
M14 melanoma = system: M14 melanoma
HCT-15 colon = system: HCT-15 colon
HT29 colon = system: HT29 colon
SNB-75 CNS = system: SNB-75 CNS
SNB-19 CNS = system: SNB-19 CNS
U251 CNS = system: U251 CNS
PC-3 prostate = system: PC-3 prostate
SK-MEL-5 melanoma = system: SK-MEL-5 melanoma
UACC-62 melanoma = system: UACC-62 melanoma
LOX IMVI melanoma = system: LOX IMVI melanoma
SK-MEL-28 melanoma = system: SK-MEL-28 melanoma

SMILES	growth (DU-145 prostate)	growth (K-562 leukemia)	growth (MALME-3M melanoma)	growth (MDA-MB-231 breast)	growth (RXF 393 renal)	growth (SF-268 CNS)	growth (SF-295 CNS)	growth (SF-539 CNS)	growth (UACC-257 melanoma)	growth (M14 melanoma)	growth (HCT-15 colon)	growth (HT29 colon)	growth (SNB-75 CNS)	growth (SNB-19 CNS)	growth (U251 CNS)	growth (PC-3 prostate)	growth (SK-MEL-5 melanoma)	growth (UACC-62 melanoma)	growth (LOX IMVI melanoma)	growth (SK-MEL-28 melanoma)
ClCCN1CCN(CCCl)CC1	inactive: 109% and inactive: 90%	inactive: 99.8% and inactive: 99%	inactive: 87.7% and inactive: 87.2%	inactive: 112% and inactive: 106%	inactive: 97.2% and inactive: 98.3%	inactive: 105% and inactive: 94.5%	inactive: 97.1% and inactive: 138%	inactive: 102% and inactive: 100%	inactive: 101% and inactive: 98.1%	inactive: 101% and inactive: 96.3%	inactive: 98.3%	inactive: 105% and inactive: 99.3%	inactive: 82.6% and inactive: 75.2%	inactive: 97.5% and inactive: 105%	inactive: 95.9%	inactive: 88.4% and inactive: 96.9%	inactive: 102% and inactive: 101%	inactive: 102% and inactive: 96.5%	inactive: 97.6% and inactive: 50.6%	inactive: 107% and inactive: 112%
Cc1ccc(N(CCCl)CCCl)cc1	inactive: 36.7%	inactive: 94.8%	inactive: 90.5%	inactive: 131%	inactive: 93.8%	inactive: 48.7%	inactive: 37.6%	inactive: 47.2%	inactive: 102%	inactive: 59%	inactive: 80.9%	inactive: 85.8%	inactive: 76.7%	inactive: 66.5%	inactive: 67.7%	inactive: 74%	inactive: 83.1%	inactive: 73.1%	inactive: 45.8%	inactive: 98.2%
CCCCOc1ccc(N(CCCl)CCCl)cc1	inactive: 103%	inactive: 100%	inactive: 99.8%	inactive: 111%	inactive: 109%	inactive: 96.3%	inactive: 105%	inactive: 108%	inactive: 97.8%	inactive: 106%	inactive: 108%	inactive: 95.4%	inactive: 83.7%	inactive: 104%	inactive: 98.2%	inactive: 99.5%	inactive: 108%	inactive: 103%	inactive: 95.5%	inactive: 107%
O=C(O)c1ccc(N(CCCl)CCCl)cc1	inactive: 117%	inactive: 96.5%	inactive: 141%	inactive: 120%	inactive: 118%	inactive: 104%	inactive: 117%	inactive: 105%	inactive: 108%	inactive: 113%	inactive: 102%	inactive: 97.5%	inactive: 104%	inactive: 112%	inactive: 109%	inactive: 99.3%	inactive: 101%	inactive: 106%	inactive: 92.9%	inactive: 119%
[O-][n+]1onc(-c2ncon2)c1-c1ncon1	inactive: 97.8%	inactive: 33.8%	active: -46.4%	inactive: 112%	inactive: 86.2%	inactive: 93.8%	inactive: 98.2%	inactive: 109%	inactive: 100%	inactive: 86.3%	inactive: 26%	inactive: 105%	inactive: 83.5%	inactive: 104%	inactive: 108%	inactive: 102%	inactive: 98.9%	inactive: 99%	inactive: 52.2%	inactive: 106%
ClCCN(CCCl)Cc1nc2cc(Cl)c(Cl)cc2[nH]1	inactive: 61.6%	inactive: 61.9%	inactive: 104%	inactive: 112%	inactive: 95%	inactive: 53.4%	inactive: 42.6%	inactive: 54.3%	inactive: 86.8%	inactive: 70.9%	inactive: 74.5%	inactive: 64.8%	inactive: 78.6%	inactive: 71.1%	inactive: 61.7%	inactive: 84.9%	inactive: 89.9%	inactive: 63.3%		inactive: 103%
NC(Cc1ccccc1N(CCCl)CCCl)C(=O)O (configuration not stated)	inactive: 86.8%	inactive: 86.5%	inactive: 35.2%	inactive: 104%		inactive: 63.7%	active: -10.4%	inactive: 38%		inactive: 81.1%	inactive: 83%	inactive: 90%	inactive: 53.2%	inactive: 81.8%	inactive: 65.4%	inactive: 96.9%	inactive: 94.5%	inactive: 64.2%	inactive: 55.9%	inactive: 92.4%
Cc1ccc(CN(CCCl)CCCl)cc1	inactive: 110%	inactive: 98.9%	inactive: 87.1%	inactive: 107%	inactive: 97.4%		inactive: 100%	inactive: 87.6%	inactive: 106%	inactive: 89.2%	inactive: 100%	inactive: 92.6%	inactive: 83.2%	inactive: 100%	inactive: 82.6%	inactive: 89%	inactive: 80.7%	inactive: 89.7%	inactive: 75.6%	inactive: 110%
Cc1cccc(CN(CCCl)CCCl)c1	inactive: 102%	inactive: 96.2%	inactive: 89.8%	inactive: 105%	inactive: 97.4%		inactive: 98.5%	inactive: 83.5%	inactive: 90.2%	inactive: 91.8%	inactive: 96.6%	inactive: 76.2%	inactive: 86.6%	inactive: 96.8%	inactive: 76.5%	inactive: 79.4%	inactive: 97.1%	inactive: 87.1%	inactive: 75.8%	inactive: 110%
Cc1cccc(NC2(C#N)CCN(Cc3ccccc3)CC2)c1	inactive: 123%	inactive: 103%	inactive: 110%	inactive: 128%	inactive: 121%		inactive: 102%	inactive: 97.6%	inactive: 110%	inactive: 95.1%	inactive: 95.3%	inactive: 114%	inactive: 94.8%	inactive: 100%	inactive: 105%	inactive: 91.2%	inactive: 115%	inactive: 109%	inactive: 99.3%	inactive: 107%
ClCCN1[C@@H](CCl)CC[C@@H]1c1ccccc1	inactive: 113%	inactive: 84.8%	inactive: 117%	inactive: 107%	inactive: 106%	inactive: 98.4%	inactive: 112%	inactive: 99.1%	inactive: 101%	inactive: 100%	inactive: 98.6%		inactive: 84.7%	inactive: 102%	inactive: 98.2%	inactive: 94.1%	inactive: 100%	inactive: 96.8%	inactive: 79.1%	inactive: 115%
Cc1ccc(NC2(C(N)=O)CCNCC2)cc1	inactive: 111%	inactive: 107%	inactive: 99.6%	inactive: 96.7%	inactive: 103%	inactive: 101%	inactive: 98.3%	inactive: 105%	inactive: 104%	inactive: 98.8%	inactive: 103%	inactive: 118%		inactive: 94.1%	inactive: 101%	inactive: 98%	inactive: 101%	inactive: 89.8%	inactive: 100%	inactive: 108%
N#Cc1ccc(N(CCCl)CCCl)cc1	inactive: 111%	inactive: 98%	inactive: 116%	inactive: 114%	inactive: 117%	inactive: 106%	inactive: 102%	inactive: 91%	inactive: 104%	inactive: 98.7%	inactive: 94.8%	inactive: 101%	inactive: 81%	inactive: 120%	inactive: 104%	inactive: 84.2%	inactive: 106%	inactive: 101%	inactive: 106%	inactive: 107%
Cc1ccccc1NC1(C#N)CCN(Cc2ccccc2)CC1	inactive: 118%		inactive: 107%	inactive: 117%	inactive: 122%		inactive: 105%	inactive: 96.8%	inactive: 112%	inactive: 105%	inactive: 101%	inactive: 116%	inactive: 95.7%	inactive: 109%	inactive: 106%	inactive: 88.4%	inactive: 101%	inactive: 107%	inactive: 96.1%	inactive: 103%
CC1(C)NC(=O)N(CCN(CCCl)CCCl)C1=O	inactive: 118%	inactive: 108%	inactive: 93.1%	inactive: 115%	inactive: 112%	inactive: 113%	inactive: 98.2%	inactive: 113%		inactive: 105%	inactive: 99.9%	inactive: 111%	inactive: 88.4%		inactive: 103%	inactive: 109%	inactive: 104%	inactive: 99.2%	inactive: 95.2%	inactive: 110%
CCOc1ccc(N(CCCl)CCCl)cc1	inactive: 46.1%	inactive: 83.9%	inactive: 72.5%	inactive: 99.1%	inactive: 64.7%	inactive: 43%		inactive: 32.8%	inactive: 72.8%	inactive: 69.1%	inactive: 72%	inactive: 73.3%	inactive: 61.5%	inactive: 82.9%	inactive: 52.1%	inactive: 70.4%	inactive: 77.9%	inactive: 60.9%	inactive: 49.8%	inactive: 89.5%

Reference: PubChem BioAssay (NCI)
